Literature values as cited in patent US20240261237A1, “REDUCING SIDE EFFECTS OF NMDA RECEPTOR ANTAGONISTS” (Seelos Therapeutics, Inc., priority 2021, published 2024).

Biological target: NMDA receptor
Conditions: cited from earlier work

CNC1(c2ccccc2Cl)CCCCC1=O (racemic) [racemic ketamine, (R)-2-(2-chlorophenyl)-2-(methylamino)cyclohexanone and (S)-2-(2-chlorophenyl)-2-(methylamino)cyclohexanone]
Ki: ~1060 nM
